Apparent affinities of Ab-14 variants for a coronavirus HR2 peptide

From the AlphaSeq antibody data of Engelhart et al. 2022 (doi:10.1038/s41597-022-01779-4), copy in the FLAb collection.

Target: peptide PDVDLGDISGINAS, taken from heptad repeat 2 (HR2) of SARS-CoV-2 spike.

Parent scFv Ab-14: VH joined to VL by three GGGGS repeats. Changes lie in the heavy chain CDRs alone.
VH: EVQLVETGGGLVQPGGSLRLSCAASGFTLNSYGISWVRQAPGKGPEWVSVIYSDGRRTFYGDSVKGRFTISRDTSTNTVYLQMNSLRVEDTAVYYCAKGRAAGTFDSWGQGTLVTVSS
VL: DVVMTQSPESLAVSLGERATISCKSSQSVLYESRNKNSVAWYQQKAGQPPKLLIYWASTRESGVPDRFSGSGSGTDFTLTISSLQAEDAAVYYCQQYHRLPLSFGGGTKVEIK

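AAYL49 was designed without a model: most single CDR substitutions and a random sample of double and triple ones. The assay is AlphaSeq: two haploid yeast populations carry antibody and antigen on their surface. Binding brings cells together so that they mate, and sequencing counts the barcode pairs among the diploids. Scores were corrected for input abundance and mapped to Kd with protein pairs of known affinity run in the same pool. Mating was done three times.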

Each variant is given by its three heavy chain CDRs, as the data file delimits them; those of the parent are GFTLNSYGIS, VIYSDGRRTFYGDSVK, GRAAGTFDS.
Scale: log10 of Kd in nM, estimated from mating counts; low values are strong binders.
The mean shown is taken over the replicates in which the pair was detected.
"nd" means that the variant was in the library but no mating with the target was seen in that replicate; the authors take this as a sign of poor binding, and no number exists.
Empty control strains, which show no peptide, gave a signal in 15% of pairings with library AAYL49; the median was 4.06 and 95% of these signals were weaker than 2.83. No background was subtracted. For each scFv, signals with the empty controls are counted beside the result, with their mean in brackets.

| CDR-H1 | CDR-H2 | CDR-H3 | replicates, log10 nM | mean, log10 nM | control signals |
|---|---|---|---|---|---|
| GFTQNSYGIS | VIYSDGRRTFCGDSVW | GRAAGTFDS | nd nd 3.80 | 3.80 | 0/9 |
| GFTLNSQGIS | VIYSIGRRTFYGDLVK | GRAAGTFDS | nd nd nd | nd | 1/9 (4.87) |
| GKTLNSYGIS | VIYSAGRRTFYGDSVK | GRAKGTFDS | 4.40 4.11 nd | 4.25 | 6/9 (4.45) |
| GFCLNSYPIS | VIYSDGRRTFYGDSLK | GRAAGTFDS | 6.02 3.72 nd | 4.87 | 3/9 (4.33) |
| GFTLNSYRKS | VILSDGRRTFYGDSVK | GRAAGTFDS | 5.26 nd 3.93 | 4.59 | 2/9 (3.45) |
| GFTLNSYGIS | VIYSDGRRTFYGDSTK | GRAAGTFDS | nd nd 3.07 | 3.07 | 0/9 |
| GFTLNSYGIS | VIYSDGRWTFYGDSVK | GRAAASFDS | nd nd nd | nd | 0/9 |
| GGTLNSYGIS | VIYSHGRRTFYGDSVK | GRHAGTFDS | 4.72 3.30 nd | 4.01 | 0/9 |
| GFTLNSYGIS | VIYSDTRRTFYGDSVK | GRANGTFDS | nd nd nd | nd | 0/9 |
| GFTLNSYGIS | VIYSDGRMTFYGDSVK | GSAAGTFDK | nd nd nd | nd | 0/9 |
| GFTLNAWGIS | VIYSDGRRTFYGDSVK | GRAAGTFDF | 3.11 2.67 nd | 2.89 | 1/9 (2.58) |
| GFTLNSYGIS | VIYSDGRRPTYGDSVK | GRASGTFDS | nd nd nd | nd | 1/9 (2.88) |
| GFTLNSYTMS | VIYSDGRRTFYHDSVK | GRAAGTFDS | nd nd nd | nd | 1/9 (3.20) |
| GFTLNSYGIS | FIYSDGRRTFYGDSVK | GRPAGTFVS | nd nd nd | nd | 1/9 (4.43) |
| GCTLNSYGIS | IIYSDGRRTFYGDSVK | GRAAGTFDS | 3.97 nd nd | 3.97 | 3/9 (3.90) |
| GFTLNSYGIS | VIYSDTVRTFYGWSVK | GRAAGTFDS | nd nd nd | nd | 0/9 |
| GFTLNSYGIS | VIYSDGVRTFYGDSVK | GRACGTHDS | nd 4.78 nd | 4.78 | 0/9 |
| HFTLNSYGIS | VPYSDGRRTFYGASVK | GRAAGTFDS | nd nd nd | nd | 1/9 (3.61) |
| GFTLNSYGIS | VITSMGRRTFYGDSVK | GMAAGTFDS | nd nd nd | nd | 1/9 (3.24) |
| GFTLNSYGIS | VIYSDGRRTFYWQSVK | GRALGTFDS | nd nd 4.13 | 4.13 | 3/9 (3.57) |
| GFTLNSKGIS | VIYSDGRRTFYGDSVK | GRAAGTYDF | nd nd nd | nd | 0/9 |
| GFTLNSYGIH | VIYSDGRMTFYGDSVG | GRAAGTFDS | nd nd 5.98 | 5.98 | 0/9 |
| GFTLVSYGIS | VIYSDGRRTFYGDSVK | GPAAGTFDS | 2.97 3.00 2.93 | 2.97 | 5/9 (4.82) |
| GFTLNSYGIS | VSYSDGRRTFYRASVK | GRAAGTFDS | nd 5.28 5.98 | 5.63 | 5/9 (4.65) |
| GFTLNSYGIS | VIYSDHRRTFYGDSVK | RMAAGTFDS | nd nd nd | nd | 0/9 |
| GFDLNSYGIS | VIYSDWRRTFYGDSIK | GRAAGTFDS | nd nd nd | nd | 3/9 (3.88) |
| GFTLNDYEIS | VIYSDGRRTFYGDSVK | GRAAGTFDS | nd 4.92 nd | 4.92 | 2/9 (4.60) |
| GFTLNSYGIS | VIYSDGRLQFGGDSVK | GRAAGTFDS | nd nd nd | nd | 3/9 (4.16) |
| WFTWNSYGIS | VIYSDGRRTFYGDSVK | GRAAGTTDS | nd nd nd | nd | 1/9 (3.14) |
| GFTLNSYGIS | VVYSDGRRTFYGKSVC | GRAAGTFDS | nd nd nd | nd | 0/9 |
| GFTLNSYGDS | VIYSDIRRTFYGDSVK | CRAAGTFDS | nd nd nd | nd | 1/9 (3.93) |
| GFTLNSYGMS | VIYSDGRRTFYGDSVK | GRAAGTFQS | nd nd nd | nd | 2/9 (3.04) |
| GFTLNIYGIS | VWYSDGRRQFYGDSVK | GRAAGTFDS | 4.24 nd 3.55 | 3.89 | 0/9 |
| GFTLNSYGIS | VIWDDGRRTFYGDSVK | GRAAGTFDS | nd nd nd | nd | 1/9 (3.94) |
| GFTLNSYGMS | VIYSDKRRTFYGDSVK | GRAAGVFDS | nd nd 5.34 | 5.34 | 5/9 (4.29) |
| GFTLNSYGIS | VIYSDGRRTRYGDSVK | GRAAGTGDD | 3.14 nd 3.24 | 3.19 | 2/9 (3.25) |
| GFTLNSYGIS | VIYSDGRRTFYGDSVK | GTAAGTFCS | nd nd nd | nd | 0/9 |
| GFTLNSYGIS | VIKSDGRRTFYGDWVK | GRAAGTFDQ | 4.21 nd nd | 4.21 | 4/9 (3.65) |
| GFTLNSYGIS | VIYSDGRRTFYGDSVK | GRAAGCFDS | 1.24 1.54 1.78 | 1.52 | 0/9 |
| GFELNSYGIS | VIYSDGRRLFYGDSVK | GRAAGTFKS | 2.04 1.96 1.64 | 1.88 | 0/9 |
| GFTLNSGGLS | VIYSDGRRTFYGDSYK | GRAAGTFDS | nd nd nd | nd | 3/9 (4.59) |
| GFTLNSYGIS | VIYSDGRLTFYGDSVW | GRAAGCFDS | nd nd nd | nd | 0/9 |
| GFTLNSYGDK | VIYSDGRRHFYGDSVK | GRAAGTFDS | 4.65 nd 4.41 | 4.53 | 1/9 (3.57) |
| GFTLNSYGPS | VIYSDGRRTFYGDSTN | GRAAGTFDS | 3.70 nd 4.19 | 3.95 | 2/9 (3.28) |
| HFTLNSYGIS | HIYSDGRRTFYTDSVK | GRAAGTFDS | nd nd nd | nd | 1/9 (3.03) |
| GFTWNSYGIS | VIYSDGRATFYGDSVK | GDAAGTFDS | nd nd nd | nd | 3/9 (4.24) |
| GFTLNCYGIS | VIYSDGRRTFCGDSVK | GRAAGTFGS | 2.96 nd 3.08 | 3.02 | 1/9 (3.18) |
| GDPLNSYGIS | VIRSDGRRTFYGDSVK | GRAAGTFDS | nd nd 4.92 | 4.92 | 4/9 (4.25) |

Excerpt, the final 3 entries:

| CDR-H1 | CDR-H2 | CDR-H3 | replicates, log10 nM | mean, log10 nM | control signals |
|---|---|---|---|---|---|
| GFTWNSYGIS | VIYSDGRATFYGDSVK | GDAAGTFDS | nd nd nd | nd | 3/9 (4.24) |
| GFTLNCYGIS | VIYSDGRRTFCGDSVK | GRAAGTFGS | 2.96 nd 3.08 | 3.02 | 1/9 (3.18) |
| GDPLNSYGIS | VIRSDGRRTFYGDSVK | GRAAGTFDS | nd nd 4.92 | 4.92 | 4/9 (4.25) |